# Data published in US20230019690A1, “FORMULATIONS COMPRISING A MINERAL AND/OR A VITAMIN AND A POLYSACCHARIDE, COMPOSITIONS THEREOF AND USE THEREOF IN SUPPLEMENTING SAID MINERAL AND/OR VITAMIN” (ALESCO S.R.L., priority 2019, published 2023).
# Assay: Permeation of Fe3+ through isolated rat intestine (Ussing-type cell)
# Format: in vitro ADME, male Wistar rats
# Details: cumulative percentage of Fe3+ permeated at the end of the experiment (4 h); iron 1.34 mg/mL
# Description: For permeation studies, the intestinal mucosa was isolated from male Wistar rats weighing 250-300 g. After sacrificing the rat, the first 20 cm of the jejunum was immediately removed. The isolated intestine was cut into 1.5 cm strips, the lumen content was gently removed and mounted in a Ussing-type cell (0.78 cm^2 exposed surface) without removing the underlying muscle layer. 1 ml of phosphate buffer pH 6.8, 0.13 M, made isotonic by adding sodium chloride (PBS 6.8) was added to the apical side and 3 ml of a pH 7.4, 0.13 M, isotonic buffer solution (PB 7.4) was added to the basolateral side (acceptor medium). To ensure oxygenation and agitation, a mixture of 95% O2 and 5% CO2 was bubbled in each compartment. Ussing chambers were placed in a water bath at 37° C.
# After 20 minutes of equilibration, the medium in each donor compartment was replaced with 1 ml of the suspension of the composition to be tested which had been previously treated to simulate its transit in the stomach. 0.2 g of pepsin were solubilised in 5 ml of an aqueous solution of HCI 0.1 M so as to simulate gastric digestion. […]
# 1 ml of sample was collected from the receiving compartment at 30-minute intervals for a total of 240 minutes and replaced with the same volume of fresh medium. The amount of Fe^3+ permeated was determined according to an analytical method. […]
substance,measurement,value
Iron (III) pyrophosphate [Iron pyrophosphate],% permeate,0.21 ± 0.04%
